Source: ChEMBL document CHEMBL1146972, “Specific inhibitors of Plasmodium falciparum thioredoxin reductase as potential antimalarial agents” (Bioorg Med Chem Lett, 2006)

Molecular target: T1, Glutathione reductase, mitochondrial (Homo sapiens) (UniProt P00390)
T1 sequence (whole entry): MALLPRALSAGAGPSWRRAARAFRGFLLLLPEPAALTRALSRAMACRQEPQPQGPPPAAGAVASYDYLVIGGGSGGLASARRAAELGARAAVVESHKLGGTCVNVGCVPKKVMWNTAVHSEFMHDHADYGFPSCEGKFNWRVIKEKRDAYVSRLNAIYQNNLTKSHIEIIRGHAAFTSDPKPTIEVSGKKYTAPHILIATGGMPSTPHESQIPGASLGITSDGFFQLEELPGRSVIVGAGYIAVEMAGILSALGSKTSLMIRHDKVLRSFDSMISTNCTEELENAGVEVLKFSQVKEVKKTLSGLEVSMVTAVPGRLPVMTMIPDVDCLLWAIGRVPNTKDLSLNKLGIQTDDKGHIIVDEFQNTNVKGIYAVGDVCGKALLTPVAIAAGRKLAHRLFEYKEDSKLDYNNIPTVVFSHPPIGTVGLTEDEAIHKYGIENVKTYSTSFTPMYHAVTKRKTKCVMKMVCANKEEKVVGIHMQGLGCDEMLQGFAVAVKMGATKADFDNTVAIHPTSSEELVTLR
Test: Inhibition of human GR at 0.5 uM

Compound: O=[N+]([O-])c1ccc(Sc2ccc([N+](=O)[O-])cc2[N+](=O)[O-])c([N+](=O)[O-])c1
- inhibition: 18%
